According to patent US20060234907A1, “Albumin solution and process for the production thereof” (priority 2004, published 2006):

How the values were obtained:
[1] = Size-exclusion chromatography (Hummel and Dreyer) binding of phenylbutazone to albumin preparations; conditions: three concentrations of phenylbutazone, 50 μM protein, 263 nm, pH 7.4, FIG. 2
From the text: (§1) A direct method for determining the binding properties of substances to albumin is the size-exclusion chromatography (SEC) according to Hummel and Dreyer (Biochim Biophys Acta 1962; 63: 530-532).
(§2) Thus, an SEC column is equilibrated with a buffer solution containing the binding ligand (e.g., phenylbutazone or warfarin). The absorption in the ultraviolet region is continuously monitored. The protein is applied to the column and eluted in the equilibration buffer. Bound ligand becomes eluted together with the albumin, while the non-bound ligand, which is smaller in most cases, becomes eluted correspondingly later. The absorption of the bound ligand mostly interferes with the absorption of the albumin and possible accompanying substances, such as stabilizers. The later eluting “negative” or so-called “vacancy” peak is caused by the depletion of the ligand in the subsequent buffer, which occupies the larger a surface area, the more binding to the previously eluted albumin occurred. […]
(§3) For these examinations, a Biosep-SEC-s 4000 column, 300×4.6 mm micron (Phenomenenx) on a Shimadzu HPLC installation was used. […] Phenylbutazone was monitored at 263 nm, and warfarin at 308 nm. The regions of linear absorption had been determined beforehand. […]

[2] = Size-exclusion chromatography (Hummel and Dreyer) binding of warfarin to albumin preparations; conditions: different concentrations of warfarin, 50 μM protein, 308 nm, pH 7.4, FIG. 3
From the text: as §1, §2, §3

Substance: novel albumin: SD virus-inactivated albumin, 20% solution, free of indole and C6-C10 fatty acid stabilizers
- vacancy peak height and area (ultraviolet absorption of phenylbutazone bound to albumin) versus commercially available albumins [1]: significantly larger
- vacancy peak height and area (warfarin bound to albumin) versus commercially available albumins [2]: similarly holds
